Target: Coagulation factor X (Homo sapiens, UniProt P00742)
Experiment: In vitro inhibitory activity against factor Xa

Sequences of proteins named here, by UniProt entry; tags and fusion partners are left off. Residues count along the entry.
UniProt P00742, 41-179 limits assumed: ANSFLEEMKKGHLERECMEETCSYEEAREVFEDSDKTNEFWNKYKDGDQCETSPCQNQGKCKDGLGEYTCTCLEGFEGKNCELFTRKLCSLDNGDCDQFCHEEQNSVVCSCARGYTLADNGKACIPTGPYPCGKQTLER
UniProt P00742, 235-488 limits assumed: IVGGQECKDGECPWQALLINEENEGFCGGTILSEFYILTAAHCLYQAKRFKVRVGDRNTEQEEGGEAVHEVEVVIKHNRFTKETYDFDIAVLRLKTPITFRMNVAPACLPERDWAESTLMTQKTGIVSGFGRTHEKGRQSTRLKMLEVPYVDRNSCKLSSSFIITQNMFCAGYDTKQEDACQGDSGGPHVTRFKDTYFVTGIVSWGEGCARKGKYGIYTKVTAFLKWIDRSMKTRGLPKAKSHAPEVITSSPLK

- IC50: 5 µM
SMILES: N=C(N)NCCC[C@H](NC(=O)CN1CCN[C@H](Cc2ccccc2)C1=O)C(=O)c1nccs1

Reference: ChEMBL document CHEMBL1136599, “Design, synthesis, and structure-activity relationships of substituted piperazinone-based transition state factor Xa inhibitors” (Bioorg Med Chem Lett, 2003)
